Here are results for three compounds from US20100305134A1, “SPECIFIC INHIBITORS OF PTERIDINE REDUCTASE WITH ANTIPARASITIC ACTION” (priority 2007, published 2010).

A word on the Ki: it is the equilibrium dissociation constant of an inhibitor or competing ligand from its target.

In one experiment the target is T1, PTR1 (UniProt Q01782).
T1 sequence (Q01782 1-288): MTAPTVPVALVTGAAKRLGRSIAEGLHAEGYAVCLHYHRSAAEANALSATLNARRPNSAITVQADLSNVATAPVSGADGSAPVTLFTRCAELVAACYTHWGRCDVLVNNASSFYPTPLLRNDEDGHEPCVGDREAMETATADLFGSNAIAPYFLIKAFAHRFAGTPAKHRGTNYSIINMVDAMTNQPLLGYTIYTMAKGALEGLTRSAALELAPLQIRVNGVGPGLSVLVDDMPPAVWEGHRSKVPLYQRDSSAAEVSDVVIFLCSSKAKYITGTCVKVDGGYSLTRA
The settings on record: read-out: PTR1 Ki (third value of three-value lines); species column (Lm or Tc) not resolvable.

The target of the next experiment is T2, LmPTR1 (Leishmania major, UniProt Q01782).
T2 construct: made in house
T2 sequence (Q01782 1-288): T1 sequence (Q01782 1-288)
In words: biochemical.

SMILES strings stand for the structures.

As for `COC(=O)C1CCN(C(=O)c2ccc(N(CCO)Cc3cnc4nc(N)nc(N)c4n3)cc2)CC1`, the Ki on PTR1 was determined as 30 nM.

`COC(=O)C1CCN(C(=O)c2ccc(N(C)Cc3cnc4nc(N)nc(N)c4n3)cc2)CC1` had a Ki at LmPTR1 of 37 nM.

Take `CCOC(=O)CN(Cc1cnc2nc(N)nc(N)c2n1)c1ccc(C(=O)N2CCC(C(=O)OC)CC2)cc1`: the inhibition constant Ki at PTR1 is 100 nM.
